This is an account of results in PMC6767919 (European journal of pharmacology, 2019).

By UniProt entry, the sequences of proteins in these tests, tags left out. Residues count along the entry.
UniProt P28335, 33-458 S407A: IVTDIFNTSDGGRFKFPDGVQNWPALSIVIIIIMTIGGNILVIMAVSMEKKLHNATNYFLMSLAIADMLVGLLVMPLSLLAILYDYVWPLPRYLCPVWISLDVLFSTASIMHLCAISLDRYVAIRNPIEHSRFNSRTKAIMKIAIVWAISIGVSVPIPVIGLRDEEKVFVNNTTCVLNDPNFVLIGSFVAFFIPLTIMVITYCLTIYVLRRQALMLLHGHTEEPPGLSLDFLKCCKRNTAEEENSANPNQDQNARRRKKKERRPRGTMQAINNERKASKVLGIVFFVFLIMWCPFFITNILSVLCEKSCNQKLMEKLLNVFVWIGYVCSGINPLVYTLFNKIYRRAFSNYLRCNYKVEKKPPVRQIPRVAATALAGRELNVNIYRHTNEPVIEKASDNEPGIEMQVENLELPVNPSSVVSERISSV
UniProt P28335, 33-458: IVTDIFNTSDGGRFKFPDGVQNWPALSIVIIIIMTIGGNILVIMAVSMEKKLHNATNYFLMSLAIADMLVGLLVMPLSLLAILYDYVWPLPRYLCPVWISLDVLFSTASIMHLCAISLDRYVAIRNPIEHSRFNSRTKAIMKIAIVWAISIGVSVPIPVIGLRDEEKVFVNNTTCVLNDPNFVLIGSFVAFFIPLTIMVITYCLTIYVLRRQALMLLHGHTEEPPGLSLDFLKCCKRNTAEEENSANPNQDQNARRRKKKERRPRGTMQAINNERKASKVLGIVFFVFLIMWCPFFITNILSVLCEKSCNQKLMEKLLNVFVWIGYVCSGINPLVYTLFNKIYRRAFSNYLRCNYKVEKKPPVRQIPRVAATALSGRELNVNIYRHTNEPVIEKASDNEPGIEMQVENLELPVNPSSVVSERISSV

For assay [1], the target named is S407A 5-HT2C receptor (Homo sapiens, UniProt P28335, S407A). Briefly: IP production and agonist-induced desensitization at the S407A 5-HT2C receptor. In kind it is cell-based.
Assay [2] concerns the target human 5-HT2C–INI (wild-type, WT) receptor (Homo sapiens, UniProt P28335). Kind of assay: cell-based.

The EC50 is the concentration needed to bring the measured effect to its halfway point. As for `Clc1cccc(N2CCNCC2)c1` [mCPP, 1-(3-chlorophenyl)piperazine], the EC50 was 7.08 nM in assay [1] and 38.9 nM in assay [2].
